# Test results from patent US6656022B2, “Method for polishing a semiconductor substrate member” (Hitachi, Ltd., priority 2001, dated 2003).
# Assay: Solubility of abrasive-grain material at normal temperature
# Type: physicochemical
substance,measurement,value
NH4Cl [Example 1],Solubility,28.2%
